Experimental data taken from ChEMBL document CHEMBL3627709, “Discovery of a Novel, Potent Spirocyclic Series of γ-Secretase Inhibitors” (J Med Chem, 2015).

Tested on: Rattus norvegicus
Assay: Antialzheimer activity in Sprague-Dawley rat assessed as reduction of total amylod beta level in brain at 10 mg/kg, po after 3 hrs by immunoassay relative to vehicle-treated control
Design: scale not given: the % may be the effect or the level left

How did the Activity turn out when `CP1(=O)OCC2(CCC[C@@]3(S(=O)(=O)c4ccc(Cl)cc4)c4c(F)ccc(F)c4OC[C@@H]23)CO1` (stereo partly specified) was run?
The Activity was 39%.
